Test results: patent US6664231B1, “Anti-fungal peptides” (priority 1993, dated 2003)

Tests used:
Candida albicans = test: Radial diffusion assay, Candida species (Table 2); format: cell-based; settings: higher effective concentration of agarose than Table 1
[1] = tested on: C. albicans (SLU-1 and other strains); format: cell-based, Candida albicans
Experimental: In additional experiments, a fluorescence-activated cell sorter (FACS) based assay was developed to test the fungicidal activity of the peptides. […] Difco) agar. Several colonies were picked from the agar plate and inoculated into 5 mL of Sabouraud's Dextrose media in a sterile 10 mL polypropylene tube. The fungal cultures were incubated for about 18 hours at 30° C. […] The culture were centrifuged at 3000 rpm for 5 minutes (Sorvall RT 6000B). After centrifugation, the supernatant was decanted leaving the fungal pellets in the centrifuge tubes. The pellets were resuspended in 15 mL of SDB. Both suspensions were combined into one tube and mixed to generate a stock culture. […] After determining the concentration of the stock, appropriate dilutions were made with Sabouraud's Dextrose media to obtain 100 mL of 1×10^6 cell/mL. […] After the 1 hour incubation, all the tubes were centrifuged at 3000 rpm for 5 minutes. […] Louis, Mo.) in Dulbecco's PBS (DPBS, GIBCO, Grand Island, N.Y.) except the autofluorescence control, which was resuspended in DPBS alone. The tubes were mixed and incubated in the dark at room temperature for at least 20 minutes. […] The settings were adjusted appropriately to the following approximate parameters: Cells were analyzed (10,000 cells/tube) and their respective fluorescence determined. […] The population of dead (i.e., propidium iodide stained) fungal cells was determined by a fluorescence threshold between the negative control and positive control.

[2] = tested on: Cryptococcus neoformans ATCC 13690; format: cell-based
Experimental: (§1) The anti-fungal activity of Domain III derived peptides was evaluated against a variety of fungal species, including species of Candida. Cryptococcus, Fusarium, Trichophyton, and Aspergillus, by an additional assay protocol utilizing Alamar Blue. Alamar Blue is an indicator dye formulated to measure quantitatively the proliferation of a variety of human or animal cells, bacteria, or fungi. It consists of an oxidation-reduction (REDOX) indicator that yields a colorimetric change in response to metabolic activity. For these experiments, species of Candida and Cryptococcus were grown in Sabouraud's dextrose broth (SDB) overnight. Strains of filamentous fungi (Aspergilius, Fusanum, Trichophyton) were obtained by irrigation of a confluent culture from a petri dish. Cells were washed and adjusted to a concentration of 5.0×10^3/mL in fresh SDB. […] Controls included amphotericin B, fluconazole, ketoconazole and griseofulvin. Antifungal drugs were also diluted in the same manner. Assays were performed in 96-well microuiter plates. […] The wells to be plated were determined by OD590 readings. The lowest concentration of peptide which maintained the blue color (or OD reading) of the blank was chosen along with the next two higher concentrations. Plates were allowed to grow for 18-48 hours depending on the rate of growth of each fungus. Minimal fungicidal activity (MFC) was determined as a 99.9% killing of the starting inoculum.

[3] = tested on: Candida parapsilosis ATCC 22019; format: cell-based
Experimental: as §1

[4] = tested on: Trychophyton rubrum ATCC 28188; format: cell-based
Experimental: as §1

Aspergillus ATCC 13073 = format: cell-based
Experimental: as §1

[5] = tested on: Candida glabrata ATCC 2001; format: cell-based
Experimental: as §1

[6] = tested on: Aspergillus niger ATCC 16404; format: cell-based
Experimental: as §1

[7] = tested on: Candida albicans (SLU-1 and ATCC strains); format: cell-based
Experimental: as §1

[8] = tested on: Fusarium solani ATCC 36031; format: cell-based
Experimental: as §1

SMILES | Anti-fungal activity: pmol/30 mm^2 zone, Candida albicans (Candida albicans) | Activity on various strains of C. albicans, IC50, 10231 [1] | Activity on various strains of C. albicans, IC50, 14053 [1] | Activity on various strains of C. albicans, IC50, 26555 [1] | Activity on various strains of C. albicans, IC50, 90028 [1] | Activity on various strains of C. albicans, IC50, SLU#1 [1] | Minimum Fungicidal Concentration, Cryptococcus neoformans ATCC 13690 [2] | Minimum Fungicidal Concentration, Candida parapsilosis ATCC 22019 [3] | Minimum Fungicidal Concentration, Trychophyton rubrum ATCC 28188 [4] | Minimum Fungicidal Concentration, Aspergillus ATCC 13073 (Aspergillus ATCC 13073) | Minimum Fungicidal Concentration, Candida glabrata ATCC 2001 [5] | Minimum Fungicidal Concentration, Aspergillus niger ATCC 16404 [6] | Minimum Fungicidal Concentration, Candida albicans ATCC 10231 [7] | Minimum Fungicidal Concentration, Candida albicans ATCC 18840 [7] | Minimum Fungicidal Concentration, Candida albicans ATCC 26555 [7] | Minimum Fungicidal Concentration, Candida albicans ATCC 44808 [7] | Minimum Fungicidal Concentration, Candida albicans ATCC 90028 [7] | Minimum Fungicidal Concentration, Candida albicans SLU-1 [7] | Minimum Fungicidal Concentration, Fusarium solani ATCC 36031 [8]
CC[C@H](C)[C@H](NC(=O)[C@H](CC(C)C)NC(=O)[C@H](Cc1c[nH]c2ccccc12)NC(=O)[C@H](CCCCN)NC(=O)[C@@H](NC(=O)[C@H](CCCCN)NC(=O)[C@H](CO)NC(=O)[C@@H](N)CCCCN)C(C)C)C(=O)N[C@@H](CCC(N)=O)C(=O)N[C@@H](CC(C)C)C(=O)N[C@@H](Cc1ccccc1)C(=O)N[C@@H](Cc1c[nH]cn1)C(=O)N[C@@H](CCCCN)C(=O)N[C@@H](CCCCN)C(N)=O [XMP.97] | 2,019 pmol/30 mm^2 zone |  |  |  |  |  |  |  |  |  |  |  |  |  |  |  |  |  | 
CC[C@H](C)[C@H](NC(=O)[C@H](CC(C)C)NC(=O)[C@H](Cc1ccccc1)NC(=O)CNC(=O)[C@@H](NC(=O)[C@H](CCCCN)NC(=O)[C@H](CO)NC(=O)[C@@H](N)CCCCN)C(C)C)C(=O)N[C@@H](CCC(N)=O)C(=O)N[C@@H](CC(C)C)C(=O)N[C@@H](Cc1ccccc1)C(=O)N[C@@H](Cc1c[nH]cn1)C(=O)N[C@@H](CCCCN)C(=O)N[C@@H](CCCCN)C(N)=O [XMP.127] | 2,144 pmol/30 mm^2 zone |  |  |  |  |  |  |  |  |  |  |  |  |  |  |  |  |  | 
CC[C@@H](C)[C@@H](NC(=O)[C@@H](CC(C)C)NC(=O)[C@@H](Cc1c[nH]c2ccccc12)NC(=O)[C@H](N)CCCCN)C(=O)N[C@H](CCC(N)=O)C(=O)N[C@H](CC(C)C)C(=O)N[C@H](Cc1ccccc1)C(=O)N[C@H](Cc1c[nH]cn1)C(=O)N[C@H](CCCCN)C(=O)N[C@H](CCCCN)C(N)=O [XMP.365] |  | 3.75 µg/mL | 0.13 µg/mL | 0.15 µg/mL | 0.27 µg/mL | 2.11 µg/mL | 1.25 µg/mL | 10.0 µg/mL | 10.0 µg/mL | 25.00 µg/mL | >10.0 µg/mL | 5.00 µg/mL | 5.0 µg/mL | 5.0 µg/mL | 1.25 µg/mL | 5.0 µg/mL | 5.0 µg/mL | 2.5 µg/mL | 0.16 µg/mL
CC[C@@H](C)[C@@H](NC(=O)[C@@H](CC(C)C)NC(=O)[C@@H](Cc1c[nH]c2ccccc12)NC(=O)[C@@H](CCCCN)NC(C)=O)C(=O)N[C@H](CCC(N)=O)C(=O)N[C@H](CC(C)C)C(=O)N[C@H](Cc1ccccc1)C(=O)N[C@H](Cc1c[nH]cn1)C(=O)N[C@H](CCCCN)C(=O)N[C@H](CCCCN)C(N)=O [XMP.366] |  | 4.53 µg/mL | 1.35 µg/mL | 0.69 µg/mL | 2.29 µg/mL | 0.89 µg/mL | 1.25 µg/mL | >10.0 µg/mL | >10.0 µg/mL | 50.00 µg/mL | >10.0 µg/mL | >10.00 µg/mL | 10.0 µg/mL | >10.0 µg/mL | 10.0 µg/mL | >10.0 µg/mL | 10.0 µg/mL | 10.0 µg/mL | 10.0 µg/mL
CC[C@H](C)[C@H](NC(=O)[C@H](CC(C)C)NC(=O)[C@H](Cc1c[nH]c2ccccc12)NC(=O)[C@H](CCCCN)NC(C)=O)C(=O)N[C@@H](CCC(N)=O)C(=O)N[C@@H](CC(C)C)C(=O)N[C@@H](Cc1ccccc1)C(=O)N[C@@H](Cc1c[nH]cn1)C(=O)N[C@@H](CCCCN)C(=O)N[C@@H](CCCCN)C(N)=O [XMP.373] |  | 2.92 µg/mL | 1.64 µg/mL | 1.46 µg/mL | 1.86 µg/mL | 1.13 µg/mL | 0.63 µg/mL | 10.0 µg/mL | 2.5 µg/mL | >50.00 µg/mL | 10.0 µg/mL | 2.50 µg/mL | 5.0 µg/mL | 2.5 µg/mL | 1.25 µg/mL | 2.5 µg/mL | 2.5 µg/mL | 2.5 µg/mL | 2.5 µg/mL
CC[C@H](C)[C@H](NC(=O)[C@H](CC(C)C)NC(=O)[C@H](Cc1c[nH]c2ccccc12)NC(=O)CNC(=O)[C@@H](N)CCCCN)C(=O)N[C@@H](CCC(N)=O)C(=O)N[C@@H](CC(C)C)C(=O)N[C@@H](Cc1ccccc1)C(=O)N[C@@H](Cc1c[nH]cn1)C(=O)N[C@@H](CCCCN)C(=O)N[C@@H](CCCCN)C(N)=O [XMP.389] |  | 3.12 µg/mL | 0.95 µg/mL | 0.89 µg/mL | 2.79 µg/mL | 0.95 µg/mL | 0.63 µg/mL | 5.0 µg/mL | 5.0 µg/mL | 25.00 µg/mL | 5.0 µg/mL | 1.25 µg/mL | 5.0 µg/mL | 2.5 µg/mL | 1.25 µg/mL | 2.5 µg/mL | 2.5 µg/mL | 2.5 µg/mL | 1.25 µg/mL
CC[C@H](C)[C@H](NC(=O)[C@H](CC(C)C)NC(=O)[C@H](Cc1c[nH]c2ccccc12)NC(=O)CNC(=O)[C@@H](NC(=O)[C@@H](N)CCCCN)C(C)C)C(=O)N[C@@H](CCC(N)=O)C(=O)N[C@@H](CC(C)C)C(=O)N[C@@H](Cc1ccccc1)C(=O)N[C@@H](Cc1c[nH]cn1)C(=O)N[C@@H](CCCCN)C(=O)N[C@@H](CCCCN)C(N)=O [XMP.391] |  | 2.06 µg/mL | 1.04 µg/mL | 0.79 µg/mL | 1.29 µg/mL | 0.64 µg/mL | 0.31 µg/mL | 2.5 µg/mL | 2.5 µg/mL | 12.50 µg/mL | 5.0 µg/mL | 1.25 µg/mL | 1.25 µg/mL | 1.25 µg/mL | 0.62 µg/mL | 1.25 µg/mL | 2.5 µg/mL | 1.25 µg/mL | 0.31 µg/mL
